Patent publication US20150315211A1, “SMALL MOLECULES FOR THE MODULATION OF MCL-1 AND METHODS OF MODULATING CELL DEATH, CELL DIVISION, CELL DIFFERENTIATION AND METHODS OF TREATING DISORDERS” (priority 2010, published 2015)

Protein sequences, listed by entry. Tags and fused reporters are not part of them. Residues count along the entry.
UniProt Q07817, 1-212 limits assumed, stated change not applied: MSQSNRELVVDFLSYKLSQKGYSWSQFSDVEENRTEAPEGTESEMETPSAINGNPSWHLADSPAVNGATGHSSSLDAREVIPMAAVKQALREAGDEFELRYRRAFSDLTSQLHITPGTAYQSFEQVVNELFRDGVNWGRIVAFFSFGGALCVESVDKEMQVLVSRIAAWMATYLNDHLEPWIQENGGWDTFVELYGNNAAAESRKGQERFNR
UniProt Q07820, 172-320 limits assumed, stated change not applied: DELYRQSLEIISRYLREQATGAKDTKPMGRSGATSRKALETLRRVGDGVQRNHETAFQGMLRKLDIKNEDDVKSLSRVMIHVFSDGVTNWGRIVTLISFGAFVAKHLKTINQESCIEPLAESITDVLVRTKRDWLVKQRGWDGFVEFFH

Columns and labels:
BCL-XLΔC = BCL-XLΔC (Homo sapiens, UniProt Q07817); experiment: High-throughput competitive FP binding screen, FITC-BAD BH3/BCL-XLΔC interaction; details: FITC-BAD BH3/BCL-XLΔC interaction pair
MCL-1ΔNΔC [1] = experiment: High-throughput competitive FP binding screen, FITC-MCL-1 SAHB/MCL-1ΔNΔC interaction; details: selectivity for MCL-1ΔNΔC over BCL-XLΔC targeting (BCL-XL % Bound minus MCL-1 % Bound)
MCL-1ΔNΔC [2] = target: MCL-1ΔNΔC (Homo sapiens, UniProt Q07820); experiment: as above; details: FITC-MCL-1 SAHB/MCL-1ΔNΔC interaction pair, competitive FP screen

**Q.** Which “BCL-XL % Bound” value (BCL-XLΔC) does the source give for `COc1ccc(OC)c(C=C(C#N)C#N)c1` here?
**A.** Its value is 98.56%.

**Q.** What about the “Spec Values” (MCL-1ΔNΔC [1]) of the same compound?
**A.** Its value is 105.6.

**Q.** And the “MCL-1% Bound” value (MCL-1ΔNΔC [2])?
**A.** The value was −7.035%.
